# Test results: ChEMBL document CHEMBL1134394, “Synthesis and biological activity of aminoguanidine and diaminoguanidine analogues of the antidiabetic/antiobesity agent 3-guanidinopropionic acid” (2001)
# Test: In vivo blood glucose was determined in obese, hyperglycemic, hyperinsulinemic, insulin-resistant KKAy mice after a dose of 500 mg/kg for 4 days
structure (smiles),measurement,value
N/C(=N/N=C/C(=O)O)N[N+](=O)[O-],MISS T/C,1.23
